Results published in publication PMC5724754 (Cell reports, 2015).

T1: FLAG-CSN2 (human, UniProt P61201 1-443)
T1 sequence: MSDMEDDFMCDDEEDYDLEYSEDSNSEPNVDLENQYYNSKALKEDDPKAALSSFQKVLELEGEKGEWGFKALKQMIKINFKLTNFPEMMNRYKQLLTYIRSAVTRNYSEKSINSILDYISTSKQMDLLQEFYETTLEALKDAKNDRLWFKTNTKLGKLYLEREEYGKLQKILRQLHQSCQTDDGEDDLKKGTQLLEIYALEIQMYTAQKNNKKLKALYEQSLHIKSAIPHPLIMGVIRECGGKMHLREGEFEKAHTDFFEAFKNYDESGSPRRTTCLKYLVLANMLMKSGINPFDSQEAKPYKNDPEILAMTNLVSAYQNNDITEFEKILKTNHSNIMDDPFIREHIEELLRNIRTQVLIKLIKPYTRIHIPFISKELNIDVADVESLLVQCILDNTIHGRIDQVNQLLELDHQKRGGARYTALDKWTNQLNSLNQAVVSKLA

B1: CSN8 (natural protein)
chain: MPVAVMAESAFSFKKLLDQCENQELEAPGGIATPPVYGQLLALYLLHNDMNNARYLWKRIPPAIKSANSELGGIWSVGQRIWQRDFPGIYTTINAHQWSETVQPIMEALRDATRRRAFALVSQAYTSIIADDFAAFVGLPVEEAVKGILEQGWQADSTTRMVLPRKPVAGALDVSFNKFIPLSEPAPVPPIPNEQQLARLTDYVAFLEN
B2: CSN6 (natural protein)
chain: MAAAAAAAAATNGTGGSSGMEVDAAVVPSVMACGVTGSVSVALHPLVILNISDHWIRMRSQEGRPVQVIGALIGKQEGRNIEVMNSFELLSHTVEEKIIIDKEYYYTKEEQFKQVFKELEFLGWYTTGGPPDPSDIHVHKQVCEIIESPLFLKLNPMTKHTDLPVSVFESVIDIINGEATMLFAELTYTLATEEAERIGVDHVARMTATGSGENSTVAEHLIAQHSAIKMLHSRVKLILEYVKASEAGEVPFNHEILREAYALCHCLPVLSTDKFKTDFYDQCNDVGLMAYLGTITKTCNTMNQFVNKFNVLYDRQGIGRRMRGLFF
B3: CSN7b (natural protein)
chain: MAGEQKPSSNLLEQFILLAKGTSGSALTALISQVLEAPGVYVFGELLELANVQELAEGANAAYLQLLNLFAYGTYPDYIANKESLPELSTAQQNKLKHLTIVSLASRMKCIPYSVLLKDLEMRNLRELEDLIIEAVYTDIIQGKLDQRNQLLEVDFCIGRDIRKKDINNIVKTLHEWCDGCEAVLLGIEQQVLRANQYKENHNRTQQQVEAEVTNIKKTLKATASSSAQEMEQQLAERECPPHAEQRQPTKKMSKVKGLVSSRH

What follows are binders tested against T1, FLAG-CSN2 (assay: native MS).

Binding result, binds:
B1
B2
B3
